Data from PubChem BioAssay AID624418 (National Center for Advancing Translational Sciences (NCATS), 2012).
Only a part is listed here, and it is no random draw. Results filed as inconclusive are left out. Active and inactive are the calls of the source. The call rests on the fitted dose curve; in most records, active means well fitted inhibition curve with a large enough effect; inconclusive means small, poorly fitted or top-dose-only effect, or another doubt; inactive means no such curve, though single readings can be large or run the other way.
On the % scale 0 is the no-effect control and ±100 the full control effect.

Assay: qHTS of GLP-1 Receptor Inverse Agonists: Cytotox Screen;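 further: loss of luciferase light is scored as toxicity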
Conditions: HEK293 cAMP-luciferase reporter cells, luminescence, 24 h; at 38.3 µM (top of the series)
Excerpt: The overall goal of this project was to develop a novel assay for discovering small molecule ligands for class B1 G protein-coupled receptors (GPCRs). Very few agonists (or inverse agonists) with generally weak activity for this entire group of physiologically important receptors are known to date. To establish proof-of-principle that this critical bottleneck can be overcome with a suitable screening approach, our studies focused on the class B1 receptor for glucagon-like peptide-1 (GLP-1R), a potential therapeutic target for diabetes and neurodegenerative disease.
The assay was developed using a cell-based functional readout. Toward this goal, stably transfected HEK293 cell clones were established that co-express (i) a cAMP-responsive luciferase reporter gene, and (ii) constitutively active GLP-1R that upon ligand interaction inhibit (inverse agonists) the luciferase activity. […]
Six ul of cell suspension (200 cells/uL in DMEM + 10% Nu serum + 1% pen-strep) is dispensed in a white solid 1536-well plate. […] A luminescence read is obtained on the PerkinElmer Viewlux after 12 min incubation at room temperature.
With `CCC(=O)N(c1ccccc1)C1(COC)CCN(CCc2cccs2)CC1` the activity change, negative = inhibition was inactive: 2.38%. In the case of `CCC(=O)N(c1ccccc1)C1(COC)CCN(CCn2nnn(CC)c2=O)CC1`, the activity change, negative = inhibition is reported as inactive: -1.14%.
